This is a selection; strong and weak results do not stand in their true shares. Calls of active or inactive are those of the source. Cut-off read from the data, not from the text of the source: active = inhibition above about 13%; inactive = the rest.

By UniProt entry, the sequences of proteins in these tests, tags left out.
UniProt Q9UBB5, whole entry: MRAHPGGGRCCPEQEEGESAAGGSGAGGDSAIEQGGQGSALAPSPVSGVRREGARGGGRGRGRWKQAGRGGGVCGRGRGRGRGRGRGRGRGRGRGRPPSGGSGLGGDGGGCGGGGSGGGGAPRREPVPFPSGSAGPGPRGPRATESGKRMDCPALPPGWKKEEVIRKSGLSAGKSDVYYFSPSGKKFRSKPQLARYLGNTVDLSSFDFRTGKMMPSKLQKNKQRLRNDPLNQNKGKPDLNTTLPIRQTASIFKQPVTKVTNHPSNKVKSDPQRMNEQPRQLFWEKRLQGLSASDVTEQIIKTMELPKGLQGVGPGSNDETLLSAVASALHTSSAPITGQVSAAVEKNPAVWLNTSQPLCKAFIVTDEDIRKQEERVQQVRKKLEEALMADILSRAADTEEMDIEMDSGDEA

In the assay the target is Methyl-CpG-binding domain protein 2 (Homo sapiens) (UniProt Q9UBB5). Briefly: MBD2-DBD methyl-oligonucleotide interaction blockers – biochemical, TR-FRET, DNA-binding domain, human, primary screen (AID 686964). As to conditions: MBD2 binding to methylated oligonucleotide, at 4.4 µM, stronger effect = higher value.
Regarding `N/C(=N\O)c1c(N)no[n+]1[O-]`, the inhibition was inactive: -1.9%. For `CCOC(=O)N1CCC(Nc2ccc(C)cc2)CC1` the value was inactive: 0.86%. On to `COc1cccc(C(c2nnnn2C(C)(C)C)N2CCC(n3c(=O)[nH]c4ccccc43)CC2)c1OC` (stereo not given), for which the inhibition was inactive: 3.33%.

On to `CCCCn1nnnc1C(c1cccc(OC)c1OC)N1CCC(n2c(=O)[nH]c3ccccc32)CC1` (stereo not given), for which the inhibition was inactive: -3.96%.

As to `O=C(OC1CN2CCC1CC2)C1c2ccccc2C=Cc2ccccc21` (stereo not given), the inhibition is inactive: 2%. For `O=c1[nH]c2ccccc2n1C1CCN(C(c2cccs2)c2nnnn2C2CCCC2)CC1` (stereo not given) the value was inactive: -1.67%; for `O=C(NCC1(N2CCOCC2)CCCCC1)c1cc(Br)ccc1Cl`, inactive: 0.95%; for `CCCCn1nnnc1C(c1ccccc1)N1CCC(n2c(=O)[nH]c3ccccc32)CC1` (stereo not given), inactive: 1.26%.

For the compound `COc1cc(C(=O)NCC2(N3CCOCC3)CCCCC2)cc(OC)c1C`, the inhibition was inactive: 4.89%. In the case of `COc1ccc(C(=O)NCC2(N3CCOCC3)CCCCC2)cc1OC`, the inhibition is inactive: 0.72%. For the compound `O=c1[nH]c2ccccc2n1C1CCN(C(c2ccnc3ccccc23)c2nnnn2C2CCCC2)CC1` (stereo not given), the inhibition is inactive: -2.27%. As for `O=c1[nH]c2ccccc2n1C1CCN(C(c2cccs2)c2nnnn2C2CCCCC2)CC1` (stereo not given), the figure is inactive: -2.3%; as for `NC(=O)C1(Nc2ccccc2)CCN(Cc2ccccc2)CC1`, inactive: -0.03%.

For the compound `C/C(N)=N\P(=O)(Oc1ccccc1)Oc1ccccc1`, the inhibition is inactive: 0%. For `c1ccc(CN2CCC(Nc3ccccc3)CC2)cc1` the value was inactive: 7.19%. As to `Cc1cc(N(CCCl)CCCl)ccc1C=O`, the inhibition was inactive: -1.84%. With `CCCN1CCC(Nc2cc(OC)cc(OC)c2)CC1`, the inhibition is inactive: 7.8%. For `O=c1[nH]c2ccccc2n1C1CCN(C(c2ccccc2)c2nnnn2C2CCCC2)CC1` (stereo not given) the value was inactive: -1.18%; for `CN(C)C1(CNC(=O)c2cccc(C#N)c2)CCCCC1`, inactive: 1.46%. As to `CC(C)(C)n1nnnc1C(c1cccc2ccccc12)N1CCC(n2c(=O)[nH]c3ccccc32)CC1` (stereo not given), the inhibition is inactive: 1.35%. For the compound `CC(C)(C)OC(=O)N1CCC(N(C(=O)c2ccccc2)c2ccc(Cl)cc2)CC1`, the inhibition is inactive: -0.6%.

For `N#Cc1ccc(C(=O)NCC2(N3CCCCC3)CCCCC2)cc1`, the inhibition is inactive: 2.58%. As to `Cc1ccccc1NC1(C#N)CCN(Cc2ccccc2)CC1`, the inhibition is inactive: -5.67%. In the case of `CCN1CCC(Nc2cccc(F)c2)CC1`, the inhibition is inactive: -0.74%.

Regarding `COc1ccc(C(c2nnnn2C2CCCCC2)N2CCC(n3c(=O)[nH]c4ccccc43)CC2)cc1` (stereo not given), the inhibition is inactive: 0.24%. As for `CC(C)(C)n1nnnc1C(c1ccnc2ccccc12)N1CCC(n2c(=O)[nH]c3ccccc32)CC1` (stereo not given), the figure is inactive: -1.27%. For the compound `O=C(NCC1(N2CCCCC2)CCCCC1)c1ccco1`, the inhibition was inactive: -0.44%. As for `CN(C)c1ccc(C(=O)NCC2(N3CCCCC3)CCCCC2)cc1`, the inhibition is inactive: -4.37%.

With `Cn1c(=O)[nH]cc(N(CCCl)CCCl)c1=O`, the inhibition is inactive: -4.37%. For `COc1cc(OC)cc(C(=O)NCC2(N3CCCCC3)CCCCC2)c1`, the inhibition is inactive: 0.77%. For `O=c1[nH]c2ccccc2n1C1CCN(C(c2ccnc3ccccc23)c2nnnn2C2CCCCC2)CC1` (stereo not given), the inhibition is inactive: 1.1%. With `COc1cccc(C(c2nnnn2C2CCCCC2)N2CCC(n3c(=O)[nH]c4ccccc43)CC2)c1OC` (stereo not given), the inhibition was inactive: 0.79%.

In the case of `CC(=O)N(c1ccccc1)C1CCNCC1`, the inhibition was inactive: 5.19%. As for `CCC(c1nnnn1C1CCCCC1)N1CCC(n2c(=O)[nH]c3ccccc32)CC1` (stereo not given), the figure is inactive: 2.4%; as for `Cc1ccc(NC2(C#N)CCN(Cc3ccccc3)CC2)cc1`, inactive: -6.05%; as for `Cc1ccc(C(=O)NCC2(N3CCCCC3)CCCCC2)o1`, inactive: -6.49%. For the compound `Fc1ccccc1NC1CCN(Cc2ccccc2)CC1`, the inhibition is inactive: -0.63%. As for `CCC(CO)(C(=O)OC1CN2CCC1CC2)c1ccccc1` (stereo not given), the inhibition is inactive: -1.09%. For `COc1cccc(C(=O)N(c2cc(C)cc(C)c2)C2CCN(C(=O)OC(C)(C)C)CC2)c1`, the inhibition was inactive: -3.83%. As for `COc1cccc(C(c2nnnn2C2CCCC2)N2CCC(n3c(=O)[nH]c4ccccc43)CC2)c1OC` (stereo not given), the figure is inactive: -5.71%; as for `COc1cc(OC)cc(C(=O)NCC2(N3CCOCC3)CCCCC2)c1`, inactive: -0.79%; as for `CN1CCC(Nc2ccc(Cl)cc2)CC1`, inactive: 6.9%. As for `CCOc1ncccc1C(=O)NCC1(N2CCOCC2)CCCCC1`, the figure is inactive: -4.32%. Consider `CN1CCC(Nc2ccc(F)c(Cl)c2)CC1`, for which the inhibition was inactive: 2.57%. `O=c1[nH]c2ccccc2n1C1CCN(C(c2cc3ccccc3o2)c2nnnn2C2CCCC2)CC1` (stereo not given): the inhibition is inactive: 3.03%. For `CCCOc1ccc(C(=O)NCC2(N(C)C)CCCCC2)cc1`, the inhibition was inactive: 4.51%.

Regarding `CC(C)(C)OC(=O)N1CCC(Nc2ccccc2)CC1`, the inhibition was inactive: 0.79%. For the compound `NN(c1ccccc1)C1CCN(CCc2ccccc2)CC1`, the inhibition is inactive: -3.88%. For `O=C(O)C1(Nc2ccccc2)CCN(Cc2ccccc2)CC1` the value was inactive: 3.7%.

In the case of `O=C(NCC1(N2CCOCC2)CCCCC1)c1cc2ccccc2o1`, the inhibition was inactive: -2.21%. As to `O=C(NCC1(N2CCCCC2)CCCCC1)c1ccc(Cl)nc1`, the inhibition was inactive: -0.43%. Turning to `O=c1[nH]c2ccccc2n1C1CCN(C(c2ccccc2OC(F)(F)F)c2nnnn2C2CCCCC2)CC1` (stereo not given), the inhibition was inactive: -1.22%. `Cc1cc(C)cc(N(C(=O)c2ccccc2)C2CCN(C(=O)OC(C)(C)C)CC2)c1`: the inhibition was inactive: 3.26%. Regarding `CCOC(=O)N1CCC(Nc2ccc(OC)cc2)CC1`, the inhibition is inactive: -1.36%.

Take `CCCCn1nnnc1C(c1ccc(OC)cc1)N1CCC(n2c(=O)[nH]c3ccccc32)CC1` (stereo not given): the inhibition was inactive: 0.13%. As for `N#CC1(Nc2ccccc2)CCN(Cc2ccccc2)CC1`, the figure is inactive: 1.37%; as for `O=C(NCC1(N2CCCCC2)CCCCC1)c1ccc(Cl)s1`, inactive: 4.37%; as for `O=c1[nH]c2ccccc2n1C1CCN(C(c2cc3ccccc3o2)c2nnnn2C2CCCCC2)CC1` (stereo not given), inactive: 0.21%. Consider `O=C(OC1CN2CCC1CC2)C1c2ccccc2Oc2ccccc21` (stereo not given), for which the inhibition was inactive: 1.02%. As to `COc1ccc(Cl)cc1C(=O)NCC1(N2CCOCC2)CCCCC1`, the inhibition is inactive: -2.57%. As for `O=C(NCC1(N2CCCCC2)CCCCC1)c1ccc(=O)[nH]c1`, the inhibition is inactive: 1.53%. For `O=C(NCC1(N2CCCCC2)CCCCC1)c1cccs1` the value was inactive: -4.12%; for `CCCCn1nnnc1C(CC)N1CCC(n2c(=O)[nH]c3ccccc32)CC1` (stereo not given), inactive: -2.17%; for `CCCCn1nnnc1C(c1cccs1)N1CCC(n2c(=O)[nH]c3ccccc32)CC1` (stereo not given), inactive: -0.72%. As for `COc1ccc(C(=O)NCC2(N3CCCCC3)CCCCC2)cc1`, the figure is inactive: 2.1%; as for `CC(C)(C)OC(=O)N1CCC(N(C(=O)c2ccccc2)c2ccc(F)cc2)CC1`, inactive: -0.14%; as for `COc1ccc(C(=O)NCC2(N3CCCCC3)CCCCC2)c(OC)c1OC`, inactive: 1.04%. Take `CCC(c1nnnn1C1CCCC1)N1CCC(n2c(=O)[nH]c3ccccc32)CC1` (stereo not given): the inhibition is inactive: 1%. For `CSc1ccccc1C(=O)NCC1(N2CCCCC2)CCCCC1`, the inhibition is inactive: -1.98%. In the case of `Cc1cccc(NC2(C#N)CCN(Cc3ccccc3)CC2)c1`, the inhibition is inactive: 4.55%. As to `O=c1[nH]c2ccccc2n1C1CCN(C(c2ccccc2)c2nnnn2C2CCCCC2)CC1` (stereo not given), the inhibition is inactive: 7.67%.

Take `O=c1[nH]c2ccccc2n1C1CCN(C(c2cccc3ccccc23)c2nnnn2C2CCCC2)CC1` (stereo not given): the inhibition is inactive: -1.26%. On to `CCOC(=O)N1CCC(Nc2cccc(C)c2)CC1`, for which the inhibition is inactive: 5.85%.

As to `COc1cc(C(=O)NCC2(N(C)C)CCCCC2)ccc1OC(F)F`, the inhibition is inactive: 1.24%. As to `CCOc1ccc(C)cc1CN(CCCl)CCCl`, the inhibition was inactive: -1.03%. Consider `CC(C)(C)n1nnnc1C(c1ccccc1)N1CCC(n2c(=O)[nH]c3ccccc32)CC1` (stereo not given), for which the inhibition is inactive: 2.35%. As for `O=C1CCN(Cc2ccccc2)CC1`, the inhibition is inactive: 2.32%. As for `CCCCOc1ccc(C(=O)NCC2(N3CCOCC3)CCCCC2)cc1`, the inhibition is inactive: 1.27%.

For the compound `O=P1(N(CCCl)CCCl)SCCCS1`, the inhibition was inactive: -1.29%. On to `CCCCn1nnnc1C(c1cc2ccccc2o1)N1CCC(n2c(=O)[nH]c3ccccc32)CC1` (stereo not given), for which the inhibition is inactive: 1.41%. `O=C(NCC1(N2CCCCC2)CCCCC1)c1ccc(F)cc1`: the inhibition was inactive: -2.45%.

On to `CCOC(=O)N1CCC(Nc2ccc(F)cc2)CC1`, for which the inhibition is inactive: -8.74%. As for `COc1ccc(NC2CCN(CCc3ccccc3)CC2)c(OC)c1`, the figure is inactive: 4.33%. With `O=C(NCC1(N2CCCCC2)CCCCC1)c1cccc(C(F)(F)F)c1`, the inhibition is inactive: 4.01%. As for `CC(C)c1ccc(C(=O)NCC2(N3CCOCC3)CCCCC2)cc1`, the inhibition is inactive: 3.86%. As to `COc1ccc(NC2CCN(C(=O)OC(C)(C)C)CC2)cc1`, the inhibition is inactive: -3.23%. As to `CN1CCN(CCOC(=O)C(O)(c2ccccc2)c2ccccc2)CC1`, the inhibition is inactive: -2.56%.

As for `CCCCn1nnnc1C(c1cccc2ccccc12)N1CCC(n2c(=O)[nH]c3ccccc32)CC1` (stereo not given), the inhibition was inactive: -5.19%. As to `O=C(NCC1(N2CCOCC2)CCCCC1)c1cc(=O)[nH]c2ccccc12`, the inhibition is inactive: -1.8%. For the compound `COc1cc(C(=O)NCC2(N3CCCCC3)CCCCC2)ccc1OC(F)F`, the inhibition is inactive: -5.04%.

Take `CC(C)(C)n1nnnc1C(c1ccccc1OC(F)(F)F)N1CCC(n2c(=O)[nH]c3ccccc32)CC1` (stereo not given): the inhibition was inactive: -6.47%. `O=C(NCC1(N2CCCCC2)CCCCC1)c1ccc(OC(F)F)cc1`: the inhibition was inactive: -0.54%. As for `CSc1ccc(C(=O)NCC2(N3CCOCC3)CCCCC2)cc1`, the figure is inactive: -6.19%; as for `O=C(NCC1(N2CCCCC2)CCCCC1)c1cccc([N+](=O)[O-])c1`, inactive: 2.67%.

Regarding `CCN1CCC(Nc2ccc(Cl)cc2)CC1`, the inhibition was inactive: 10.2%. As for `O=c1[nH]c2ccccc2n1C1CCN(C(c2ccccc2OC(F)(F)F)c2nnnn2C2CCCC2)CC1` (stereo not given), the inhibition is inactive: 2.21%. For `N#CC1(Nc2ccccc2)CCN(CCc2ccccc2)CC1` the value was inactive: -0.49%; for `CN1CCC(Nc2cccc(F)c2)CC1`, inactive: -0.59%. `O=C(NCC1(N2CCCCC2)CCCCC1)c1cncc(Br)c1`: the inhibition was inactive: -4.2%.

With `Cc1ccc(C(=O)NCC2(N(C)C)CCCCC2)o1`, the inhibition was inactive: -0.81%. Take `CCCOc1ccc(C(=O)NCC2(N(C)C)CCCCC2)cc1OC`: the inhibition is inactive: 2.15%.

In the case of `COc1ccc(C(c2nnnn2C2CCCC2)N2CCC(n3c(=O)[nH]c4ccccc43)CC2)cc1` (stereo not given), the inhibition is inactive: -0.2%. As for `COc1ccc(CN(CCCl)CCCl)cc1Cl`, the inhibition is inactive: 6.38%.

Turning to `COC(=O)C1(Nc2ccccc2)CCN(Cc2ccccc2)CC1`, the inhibition was inactive: -1.13%. In the case of `CN(C)c1cccc(C(=O)NCC2(N3CCCCC3)CCCCC2)c1`, the inhibition was inactive: -1.21%. Turning to `CC(C)c1ccc(NC2CCN(C(=O)OC(C)(C)C)CC2)cc1`, the inhibition was inactive: 0.11%.

Consider `CCCCn1nnnc1C(c1ccnc2ccccc12)N1CCC(n2c(=O)[nH]c3ccccc32)CC1` (stereo not given), for which the inhibition is inactive: -10.8%. With `COc1cc(OC)c(C(=O)NCC2(N(C)C)CCCCC2)cc1OC`, the inhibition was inactive: -2.81%. Consider `CCC(c1nnnn1C(C)(C)C)N1CCC(n2c(=O)[nH]c3ccccc32)CC1` (stereo not given), for which the inhibition was inactive: 0.68%. As to `O=C(NCC1(N2CCOCC2)CCCCC1)c1cc(F)c(F)cc1Cl`, the inhibition is inactive: 7.15%.

These data come from PubChem BioAssay AID686964 (The Scripps Research Institute Molecular Screening Center, 2013).
